Assay results as given in PubChem BioAssay (NCI).
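Values below derive from 48-hour exposures of cells grown in 96-well plates, with endpoints linearly interpolated between the two concentrations bracketing the appropriate inhibition level. GI50 marks 50% less growth. Definition used: TGI = concentration required for complete inhibition of growth.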

Test system: MDA-MB-468 breast
Assay: NCI anticancer screen, dose series, 48 h

NC(Cc1ccccc1N(CCCl)CCCl)C(=O)O (configuration not stated)
GI50: 2.68 µM
TGI: 8.58 µM
